Reference: ChEMBL document CHEMBL5137086, “Discovery of 1-(Hetero)aryl-β-carboline Derivatives as IDO1/TDO Dual Inhibitors with Antidepressant Activity” (J Med Chem, 2022)

Chains of the proteins cited; added tags and fusions are not shown. Lines headed by an entry give the natural chain unless they say otherwise; changes in a name come on top.
UniProt P48775: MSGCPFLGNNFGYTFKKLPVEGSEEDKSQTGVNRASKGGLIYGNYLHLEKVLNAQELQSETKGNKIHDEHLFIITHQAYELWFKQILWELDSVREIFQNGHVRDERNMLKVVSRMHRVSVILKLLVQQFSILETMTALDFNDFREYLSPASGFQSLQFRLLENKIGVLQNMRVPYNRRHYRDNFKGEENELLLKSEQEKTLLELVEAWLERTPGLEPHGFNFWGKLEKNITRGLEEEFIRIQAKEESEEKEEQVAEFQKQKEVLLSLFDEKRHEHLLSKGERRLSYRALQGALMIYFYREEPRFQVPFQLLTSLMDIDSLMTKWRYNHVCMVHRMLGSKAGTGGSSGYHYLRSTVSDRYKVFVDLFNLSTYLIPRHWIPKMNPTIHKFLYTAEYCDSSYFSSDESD

Biological target: Tryptophan 2,3-dioxygenase (Homo sapiens, UniProt P48775)
Assay: Inhibition of TDO (unknown origin) assessed as reduction in N-formylkynurenine formation using L-tryptophan as substrate incubated for 75 mins by UV absorbance based analysis

IC50: 350 nM
SMILES: Fc1ccc2c(/C=C/c3cccnc3)c[nH]c2c1
